Patent publication US7112586B2, “Substituted diamine derivatives useful as motilin antagonists” (Ortho-McNeil Pharmaceutical, Inc., priority 2000, dated 2006)

Amino acid sequences for entries named in this document (tags omitted). Residues count along the entry.
UniProt G1T803, 1-400: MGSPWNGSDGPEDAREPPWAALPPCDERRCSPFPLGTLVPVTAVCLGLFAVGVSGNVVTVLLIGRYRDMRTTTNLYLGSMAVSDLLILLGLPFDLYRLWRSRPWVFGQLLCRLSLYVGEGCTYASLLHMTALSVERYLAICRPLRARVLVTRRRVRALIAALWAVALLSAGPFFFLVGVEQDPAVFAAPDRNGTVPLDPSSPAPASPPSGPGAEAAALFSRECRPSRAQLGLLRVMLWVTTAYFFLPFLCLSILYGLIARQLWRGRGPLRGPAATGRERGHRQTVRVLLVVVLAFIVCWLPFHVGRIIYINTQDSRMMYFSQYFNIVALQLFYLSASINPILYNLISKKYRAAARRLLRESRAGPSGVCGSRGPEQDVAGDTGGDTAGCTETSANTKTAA

Legend:
Motilin Receptor = Motilin Receptor (Oryctolagus cuniculus, UniProt G1T803); experiment: Motilin receptor binding, rabbit colon membranes, 125I porcine motilin; details: for IC50: read-out: Rabbit Colon IC50
[1] = system: motilin induced contraction; experiment: Rabbit tissue bath procedure: inhibition of motilin induced contraction of duodenum segments; parameters: species or system New Zealand White rabbit; details: read-out: Tissues IC50, 3 nM porcine motilin induced contraction

Row | Rabbit Colon % Inh @1 mM (Motilin Receptor) | IC50 (Motilin Receptor) | IC50 [1] | Structure (SMILES)
1 | 62% | 0.41 µM | – | O=C(CC1(CC(=O)N(Cc2ccc(F)cc2)c2cccc(OCCN3CCOCC3)c2)CCCC1)N(CCc1ccccc1)Cc1ccccc1
2 | 61% | 0.96 µM | – | CC(CCC(=O)N(CCc1ccccc1)Cc1ccccc1)C(=O)N(Cc1ccc(F)cc1)c1cccc(OCCN2CCOCC2)c1 (stereo not shown)
3 | 99% | 0.2 µM | 0.067 µM | CC(C)(CCC(=O)N(Cc1ccc(F)cc1)c1cccc(OCCN2CCOCC2)c1)C(=O)N(CCc1ccccc1)Cc1ccccc1
4 | 91% | 0.009 µM | 0.048 µM | Cc1c(OCCN2CCCC2)cccc1N(C[C@@H]1CCC[C@H](N(Cc2cccc([N+](=O)[O-])c2)C(=O)C(Cl)(Cl)Cl)C1)C(=O)c1ccc(F)cc1
